The chains behind the UniProt entries cited, without tags or fusion partners.
UniProt P14902, whole entry: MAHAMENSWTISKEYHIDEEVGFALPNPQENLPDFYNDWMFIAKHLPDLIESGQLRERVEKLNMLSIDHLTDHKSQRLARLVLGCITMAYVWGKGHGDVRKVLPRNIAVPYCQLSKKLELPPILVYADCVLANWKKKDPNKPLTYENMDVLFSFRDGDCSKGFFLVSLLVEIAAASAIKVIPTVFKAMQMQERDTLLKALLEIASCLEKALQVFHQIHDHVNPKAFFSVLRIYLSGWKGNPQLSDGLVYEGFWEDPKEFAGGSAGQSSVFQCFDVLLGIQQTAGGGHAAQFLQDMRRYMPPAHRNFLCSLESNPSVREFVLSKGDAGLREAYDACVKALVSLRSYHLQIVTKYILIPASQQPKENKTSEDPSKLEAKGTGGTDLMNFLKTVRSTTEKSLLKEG

In ChEMBL document CHEMBL1144666, “Indoleamine 2,3-dioxygenase is the anticancer target for a novel series of potent naphthoquinone-based inhibitors” (J Med Chem, 2008):

Molecular target: Indoleamine 2,3-dioxygenase 1 (Homo sapiens, UniProt P14902)
Assay: Inhibition of purified human recombinant IDO expressed in TREx cells
In short: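 T-REx cells carrying doxycycline-inducible human IDO cDNA are seeded at 20000/well and induced 72 h with doxycycline. They are rinsed, then exposed in triplicate to serial dilutions in phenol red-free DMEM + 10% FBS for 18 h and TCA-fixed. Supernatant kynurenine is read with p-DMAB at 490 nm, corrected for SRB viability. IC50 is taken from a sigmoidal curve.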

IC50: 6.8 µM
SMILES: CC1(C)OC2=C(C(=O)c3ccccc3C2=O)C(NCc2ccccc2)C1O (stereo in doubt)
